Test results as given in patent publication US9809822B2, “Triptolide derivatives and preparation method and use thereof” (priority 2013, dated 2017).

Assay: Distribution of triptolide / triptolide-nucleolin aptamer conjugate within tissues by HPLC, BxPC-3 xenograft tumor-bearing mice
Conditions: female, nude, mouse, in vivo, 24 h
From the text: BxPC-3 cells in logarithmic growth phase were used.
Samples A and B in 2.2.2 were used.

Work on `CC(C)[C@]12O[C@H]1[C@@H]1O[C@]13[C@]1(O[C@H]1C[C@H]1C4=C(CC[C@@]13C)C(=O)OC4)[C@@H]2O` [Triptolide] yielded a TP concentration of 16.4 ng/mL.
